Values quoted from earlier work as cited in patent US9532949B2, “Intraperitoneally-administered nanocarriers that release their therapeutic load based on the inflammatory environment of cancers” (STC.UNM, priority 2011, dated 2017).

Settings: TX 100 considered as 100% lysis; cited from earlier work

CC[C@H](C)[C@H](NC(=O)CN)C(=O)NCC(=O)N[C@@H](C)C(=O)N[C@H](C(=O)N[C@@H](CC(C)C)C(=O)N[C@@H](CCCCN)C(=O)N[C@H](C(=O)N[C@@H](CC(C)C)C(=O)N[C@H](C(=O)N[C@H](C(=O)NCC(=O)N[C@@H](CC(C)C)C(=O)N1CCC[C@H]1C(=O)N[C@@H](C)C(=O)N[C@@H](CC(C)C)C(=O)N[C@H](C(=O)N[C@@H](CO)C(=O)N[C@@H](Cc1c[nH]c2ccccc12)C(=O)N[C@H](C(=O)N[C@@H](CCCCN)C(=O)N[C@@H](CCCNC(=N)N)C(=O)N[C@@H](CCCCN)C(=O)N[C@@H](CCCNC(=N)N)C(=O)N[C@@H](CCC(N)=O)C(=O)N[C@@H](CCC(N)=O)C(N)=O)[C@@H](C)CC)[C@@H](C)CC)[C@@H](C)O)[C@@H](C)O)C(C)C)C(C)C [melittin]
Lysis of lipid bilayers relative to TX 100: 70-80%
